{"source": "patent US20210283217A1", "about": "“NEUROMODULATING COMPOSITIONS AND RELATED THERAPEUTIC METHODS FOR THE TREATMENT OF INFLAMMATORY AND AUTOIMMUNE DISEASES” (Flagship Pioneering Innovations V, Inc., priority 2016, published 2021)", "system": "primary human T cells", "test": "T cell activation and cytokine secretion assay (LEGENDplex)", "assay_type": "cell-based", "method": "Peripheral blood mononuclear cells (PBMCs) were isolated from whole blood by ficoll density separation. Briefly, blood was diluted 1:2 with 0.5 mM EDTA solution in PBS, loaded onto a Ficoll-filled Leucosep tube (Greiner Bio-One), and centrifuged for 20 minutes at 1000×g. After centrifugation, the leukocyte/PBMC layer on top of the separation medium was collected and sequentially washed three times with 0.5 mM EDTA solution in PBS. T cells were isolated from PBMCs using magnetic bead-based separation following vendor specification, e.g., Biolegend MojoSort Human CD4/CD8 Naïve T Cell Isolation Kit protocol. In brief, the PBMCs were labeled with biotinylated antibodies against cell surface receptors for cells not in the population of interest. The labeled cells are then captured by streptavidin-coated magnetic beads and removed by magnetic incubation. The uncaptured cells that flow through the magnetic separation are predominantly comprised of the population of interest, in this instance CD3+ T cells. T cells were stained with a 5 μM solution of Tag-it Violet™ dye (BioLegend) for 20 minutes protected from light. […] Supernatants were collected at 24, 48, and 72 hrs and cytokine secretion was analyzed by flow cytometry using a LEGENDplex assay (BioLegend). […] The beads were then stained and the captured cytokine composition assessed by flow cytometry."}
{"smiles": "CCCN1CCC[C@@H]2Cc3n[nH]cc3C[C@H]21", "note": "[quinpirole]", "values": [{"measurement": "T cell production of pro-survival cytokine IL-2", "value": "increase"}]}
